# Laboratory results from PMC12057359, “Inhibitory effect of copper chelators on the budding in Candida albicans” (Antimicrobial Agents and Chemotherapy, 2025).
# System: C. albicans JCM1542
# Details: C. albicans JCM1542, MOPS-RPMI medium, 24 h
substance,measurement,value
sodium nitroprusside dihydrate,morphological change induced in C. albicans,completely distinct from those of the copper chelators

# Some compounds may have been tested in ways that are not shown here.
